For 27 compounds, activation results are on record in PubChem BioAssay AID602248 (The Scripps Research Institute Molecular Screening Center, 2012).

The entries are a selection whose mix differs from that of the whole data set. Calls of active or inactive are those of the source. Cut-off read from the data, not from the text of the source: active = activation above about 15%; inactive = the rest.

A short description of the experiment: counter-screen for M1 agonists: effect in parental CHO-K1 cells (AID 602248).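 Note: untransfected CHO-K1 host cells lacking M1 receptor as counterscreen.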 The note with it: Fluo-8 calcium fluorescence, at 3 µM, hits give high values, scaled to maximal ATP response, vehicle zero.
For `COc1ccc(OP(C)(=O)Nc2cccc(F)c2)cc1` (configuration not stated), the activation is inactive: -0.33%. Then `COc1ccccc1OP(C)(=O)Nc1cc(Cl)ccc1C` (configuration not stated), with inactive: 1.14%; and `Cc1cc(C)cc(OP(C)(N)=O)c1` (configuration not stated), with inactive: -0.44%; and `CCOC(=O)c1ccc(NP(C)(=O)Oc2ccccc2)cc1` (configuration not stated), with inactive: 2.03%. As for `Cc1ccc(NP(C)(=O)Oc2ccccc2)c(C)c1` (configuration not stated), the activation was inactive: 0.93%. Then `COc1ccccc1OP(C)(=O)Nc1ccc(C)cc1` (configuration not stated), with inactive: -0.42%; and `Cc1cccc(C)c1OP(C)(N)=O` (configuration not stated), with inactive: -0.05%. Then `CC(C)(C)c1ccc(OP(C)(=O)Nc2ccc(SC(F)(F)F)cc2)cc1` (configuration not stated), with inactive: 0.33%; and `O=[N+]([O-])c1ccc2c(c1)C=Nc1ccccc1O2`, with inactive: 1.42%; and `O=[N+]([O-])c1cc([N+](=O)[O-])c(Nc2cccnc2)c([N+](=O)[O-])c1`, with inactive: 13.5%. For `COc1cc(C(=O)NCC2(N3CCOCC3)CCCCC2)ccc1OCC(C)C` the value was inactive: -0.38%; for `COc1ccccc1-c1ccccn1.O=[N+]([O-])c1cc([N+](=O)[O-])c(O)c([N+](=O)[O-])c1`, inactive: 0.55%. In the case of `CCN(CC)CCCOC(=O)C(O)(c1ccccc1)c1ccccc1`, the activation was inactive: 0.35%. Turning to `CP(=O)(Nc1ccccn1)Oc1ccc(Cl)cc1` (configuration not stated), the activation was inactive: 1.31%. With `CCOP(C)(=S)SCC(=O)NC(C)C(=O)O` (configuration not stated), the activation was inactive: 0.32%.

Turning to `O=[N+]([O-])c1cc([N+](=O)[O-])c(O)c([N+](=O)[O-])c1.c1ccc(Oc2ccncc2)cc1`, the activation was inactive: 0.34%.

Turning to `CCOC(=O)c1ccc(NP(C)(=O)Oc2ccc(OC)cc2)cc1` (configuration not stated), the activation is inactive: 2.23%. Then `Cc1cc(C)cc(OP(C)(=O)Nc2ccc(SC(F)(F)F)cc2)c1` (configuration not stated), with inactive: -0.27%.

On to `CCc1ccc(OP(C)(=O)N2CCN(c3ccc([N+](=O)[O-])cc3)CC2)cc1` (configuration not stated), for which the activation is inactive: 13%. For `CP(=O)(NC(=O)Nc1ccccc1)Oc1ccccc1` (configuration not stated) the value was inactive: -0.15%. Consider `CP(=O)(Oc1ccccc1)OC(c1ccccc1)C(F)(F)F` (configuration not stated), for which the activation is active: 22%. `CP(=O)(Nc1ccc(SC(F)(F)F)cc1)Oc1ccc(Cl)cc1` (configuration not stated): the activation is inactive: 1.26%. For `Cc1cccc(C)c1OP(C)(=O)Nc1ccc(SC(F)(F)F)cc1` (configuration not stated) the value was inactive: 1.02%; for `Cc1ccc(Nc2c([N+](=O)[O-])cc([N+](=O)[O-])cc2[N+](=O)[O-])cc1`, inactive: 8.29%. Then `COc1ccccc1OP(C)(=O)Nc1ccccc1` (configuration not stated), with inactive: -0.34%. As to `CP(=O)(Nc1ccccc1Br)Oc1ccccc1` (configuration not stated), the activation is inactive: 1.33%. For `CP(=S)(Nn1cnnc1)Oc1ccccc1` (configuration not stated) the value was inactive: 0.04%.
